Biological target: Prothrombin (Homo sapiens, UniProt P00734)
Experiment: Inhibition of thrombin

IC50: 980 pM
Structure (SMILES): N=C(N)c1ccc(CNC(=O)[C@@H]2C=CCN2C(=O)[C@@H](CC2CCCCC2)NCC(=O)O)s1
